Results published in ChEMBL document CHEMBL1141652 (J Med Chem, 2008).

Amino acid sequences for entries named in this document (tags omitted). A change or cut given only in a name is not applied to a line headed by its entry.
UniProt P78536: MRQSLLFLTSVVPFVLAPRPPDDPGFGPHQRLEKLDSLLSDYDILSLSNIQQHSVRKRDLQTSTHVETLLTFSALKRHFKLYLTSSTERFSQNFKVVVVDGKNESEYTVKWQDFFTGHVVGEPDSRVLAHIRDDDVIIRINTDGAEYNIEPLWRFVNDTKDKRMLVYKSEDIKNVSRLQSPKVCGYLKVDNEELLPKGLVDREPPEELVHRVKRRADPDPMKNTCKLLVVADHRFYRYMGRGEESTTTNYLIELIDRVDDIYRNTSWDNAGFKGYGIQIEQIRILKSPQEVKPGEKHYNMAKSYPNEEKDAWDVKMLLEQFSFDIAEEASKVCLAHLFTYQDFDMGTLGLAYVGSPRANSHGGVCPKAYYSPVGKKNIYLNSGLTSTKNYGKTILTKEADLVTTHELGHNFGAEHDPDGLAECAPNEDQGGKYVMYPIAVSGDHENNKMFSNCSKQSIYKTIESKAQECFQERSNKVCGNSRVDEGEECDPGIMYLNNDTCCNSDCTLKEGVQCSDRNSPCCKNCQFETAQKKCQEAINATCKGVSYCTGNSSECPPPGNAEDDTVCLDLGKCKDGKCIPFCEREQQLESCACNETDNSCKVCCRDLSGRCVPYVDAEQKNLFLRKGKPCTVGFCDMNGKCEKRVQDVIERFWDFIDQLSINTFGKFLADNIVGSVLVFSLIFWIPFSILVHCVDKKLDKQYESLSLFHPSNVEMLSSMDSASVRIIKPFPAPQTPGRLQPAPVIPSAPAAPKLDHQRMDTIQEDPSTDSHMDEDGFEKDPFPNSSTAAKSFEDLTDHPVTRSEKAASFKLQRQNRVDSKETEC

Molecular target: Disintegrin and metalloproteinase domain-containing protein 17 (Homo sapiens, UniProt P78536)

Ki: 12 nM
Structure (SMILES): COC(=O)[C@]1(c2cccc(OCc3cc(C)nc4ccccc34)c2)C[C@H]1C(=O)NO (relative stereo)
